Only a part is listed here, and it is no random draw. Activity calls are given as the source filed them. Rule as the data show it: active = inhibition above about 60%; inactive = the rest.

By UniProt entry, the sequences of proteins in these tests, tags left out.
UniProt P51452, whole entry: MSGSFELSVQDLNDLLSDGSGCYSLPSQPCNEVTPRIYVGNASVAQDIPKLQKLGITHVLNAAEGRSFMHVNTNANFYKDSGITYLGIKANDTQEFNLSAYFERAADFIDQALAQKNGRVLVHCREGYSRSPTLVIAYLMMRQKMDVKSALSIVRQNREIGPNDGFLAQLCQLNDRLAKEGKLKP

From PubChem BioAssay AID1992 (Sanford-Burnham Center for Chemical Genomics, 2009) come the findings set out here.

In this assay the target is Dual specificity protein phosphatase 3 (Homo sapiens) (UniProt P51452). The experiment in a line: VHR1 phosphatase inhibitors, primary screen, biochemical, colorimetric, HTS (AID 1992). Particulars: recombinant VHR phosphatase, colorimetric substrate read-out; at 20 µM; hits give high values.
Turning to `CP(=O)(Oc1ccc(F)cc1)Oc1ccc(F)cc1`, the inhibition (as a rule, the change of the read-out against control, counted positive when it falls) is inactive: -8.7%.

Consider `CCc1ccc(OP(C)(=O)O)cc1`, for which the inhibition was inactive: 1.5%.

As for `CN(C)CCOC(=O)C(O)(c1ccccc1)c1ccccc1`, the inhibition is inactive: -2.3%.

Regarding `CP(=O)(Oc1ccccc1F)Oc1ccccc1F`, the inhibition was inactive: -10.4%. With `CP(=O)(Oc1ccccc1)Oc1ccccc1` the figure was inactive: -14.1%.

On to `CP(=O)(Oc1ccc(Cl)cc1)Oc1ccc(Cl)cc1`, for which the inhibition is inactive: -13.6%.
